Test results taken from patent US9440982B2 (Eolas Therapeutics, Inc., priority 2012, dated 2016).

Amino acid sequences for entries named in this document (tags omitted).
UniProt O43614, whole entry: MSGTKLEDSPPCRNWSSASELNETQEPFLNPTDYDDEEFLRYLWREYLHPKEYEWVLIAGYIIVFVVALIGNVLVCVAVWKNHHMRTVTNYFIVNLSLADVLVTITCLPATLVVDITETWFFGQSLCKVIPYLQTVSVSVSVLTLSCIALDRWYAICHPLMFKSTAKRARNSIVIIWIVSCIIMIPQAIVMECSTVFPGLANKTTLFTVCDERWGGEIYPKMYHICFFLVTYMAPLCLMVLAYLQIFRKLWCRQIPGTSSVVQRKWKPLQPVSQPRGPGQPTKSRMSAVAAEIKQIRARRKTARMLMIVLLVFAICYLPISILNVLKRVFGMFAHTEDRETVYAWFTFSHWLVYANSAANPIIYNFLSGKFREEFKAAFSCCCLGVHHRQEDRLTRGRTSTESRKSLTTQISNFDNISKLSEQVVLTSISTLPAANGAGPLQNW

The molecules below were run against T1, OX2 (Homo sapiens, UniProt O43614) (assay: Orexin receptor cell-based functional assay, [Ca2+]i by FLIPR, CHO-OX2 cells). Conditions: CHO-OX2 cells, [Ca2+]i by FLIPR, antagonist dose-range 0.1 nM-10 μM, EC90 of OXA; read-out: OX2.
T1 construct: expressed in transfected cells; host or cells: CHO (CHO-OX2, kept under selection antibiotic)

IC50 [µM] | SMILES
> 5 | Cc1ccc(-n2cccn2)c(C(=O)N2CCC[C@@H](C)[C@H]2CNc2ncc(C(F)(F)F)cn2)n1 [Example A166, ((2S,3R)-3-Methyl-2-(((5-(trifluoromethyl)pyrimidin-2-yl)amino)methyl)piperidin-1-yl)(6-methyl-3-(1H-pyrazol-1-yl)pyridin-2-yl)methanone]
2.5 | Cc1ccc(-c2ncccn2)c(C(=O)N2CCC[C@@H](C)[C@H]2CNc2ncc(C(F)(F)F)cn2)n1 [Example A184, ((2S,3R)-3-Methyl-2-(((5-(trifluoromethyl)pyrimidin-2-yl)amino)methyl)piperidin-1-yl)(6-methyl-3-(pyrimidin-2-yl)pyridin-2-yl)methanone]
> 5 | C[C@@H]1CCCN(C(=O)c2ccccc2-n2nccn2)[C@@H]1CNc1nc2cc(Cl)ccc2o1 [Example A219, (2-(2H-1,2,3-Triazol-2-yl)phenyl)((2S,3R)-2-(((5-chlorobenzo[d]oxazol-2-yl)amino)methyl)-3-methylpiperidin-1-yl)methanone]
> 5 | Cc1ccc(-n2nccn2)c(C(=O)N2CCC[C@@H](C)[C@H]2CNc2ncc(C#N)cn2)n1 [Example A190, 2-((((2S,3R)-3-Methyl-1-(6-methyl-3-(2H-1,2,3-triazol-2-yl)picolinoyl)piperidin-2-yl)methyl)amino)pyrimidine-5-carbonitrile]
> 5 | Cc1ccc(-n2nccn2)c(C(=O)N2CCC[C@@H](C)[C@H]2CN(C)c2ccc(C(F)(F)F)cn2)n1 [Example A194, ((2S,3R)-3-Methyl-2-((methyl(5-(trifluoromethyl)pyridin-2-yl)amino)methyl)piperidin-1-yl)(6-methyl-3-(2H-1,2,3-triazol-2-yl)pyridin-2-yl)methanone]
> 5 | Cc1ccc(-n2ncc(C)n2)c(C(=O)N2CCC[C@@H](C)[C@H]2CNc2ccc(F)cn2)c1 [Example A142, ((2S,3R)-2-(((5-Fluoropyridin-2-yl)amino)methyl)-3-methylpiperidin-1-yl)(5-methyl-2-(4-methyl-2H-1,2,3-triazol-2-yl)phenyl)methanone]
> 5 | Cc1ccc(-c2ccnc(C)c2)c(C(=O)N2CCC[C@@H](C)[C@H]2CNc2ccc(F)cn2)c1 [Example A53, ((2S,3R)-2-(((5-Fluoropyridin-2-yl)amino)methyl)-3-methylpiperidin-1-yl)(5-methyl-2-(2-methylpyridin-4-yl)phenyl)methanone]
> 5 | Cc1ccc(-n2nccn2)c(C(=O)N2CCC[C@@H](C)[C@H]2CNc2ccc(C#N)cn2)c1 [Example A127, 6-((((2S,3R)-3-Methyl-1-(5-methyl-2-(2H-1,2,3-triazol-2-yl)benzoyl)piperidin-2-yl)methyl)amino)nicotinonitrile]
1.8 | Cc1ccc(-n2ccc(C)n2)c(C(=O)N2CCC[C@@H](C)[C@H]2CNc2ccc(C(F)(F)F)cn2)c1 [Example A108, ((2S,3R)-3-Methyl-2-(((5-(trifluoromethyl)pyridin-2-yl)amino)methyl)piperidin-1-yl)(5-methyl-2-(3-methyl-1H-pyrazol-1-yl)phenyl)methanone]
2.4 | Cc1ccc(-c2ccccn2)c(C(=O)N2CCC[C@@H](C)[C@H]2CNc2ccc(F)cn2)c1 [Example A58, ((2S,3R)-2-(((5-Fluoropyridin-2-yl)amino)methyl)-3-methylpiperidin-1-yl)(5-methyl-2-(pyridin-2-yl)phenyl)methanone]
> 4 | Cc1ccc(-c2nccn2C)c(C(=O)N2CCC[C@@H](C)[C@H]2CNc2ccc(C(F)(F)F)cn2)c1 [Example A20, ((2S,3R)-3-Methyl-2-(((5-(trifluoromethyl)pyridin-2-yl)amino)methyl)piperidin-1-yl)(5-methyl-2-(1-methyl-1H-imidazol-2-yl)phenyl)methanone]
0.86 | Cc1ccc(-c2cnn(C(C)C)c2)c(C(=O)N2CCC[C@@H](C)[C@H]2CNc2ccc(C(F)(F)F)cn2)c1 [Example A111, (2-(1-Isopropyl-1H-pyrazol-4-yl)-5-methylphenyl)((2S,3R)-3-methyl-2-(((5-(trifluoromethyl)pyridin-2-yl)amino)methyl)piperidin-1-yl)methanone]
9.4 | Cc1ccc(C(=O)N2CCC[C@@H](C)[C@H]2CNc2ncc(Cl)cn2)c(-n2nccn2)c1 [Example A271, ((2S,3R)-2-(((5-Chloropyrimidin-2-yl)amino)methyl)-3-methylpiperidin-1-yl)(4-methyl-2-(2H-1,2,3-triazol-2-yl)phenyl)methanone]
> 5 | C[C@@H]1CCCN(C(=O)c2cc(F)ccc2-c2ncccn2)[C@@H]1CNc1ncc(Cl)cn1 [Example A226, ((2S,3R)-2-(((5-Chloropyrimidin-2-yl)amino)methyl)-3-methylpiperidin-1-yl)(5-fluoro-2-(pyrimidin-2-yl)phenyl) methanone]
> 5 | C[C@@H]1CCCN(C(=O)c2c(F)cccc2-c2ncccn2)[C@@H]1CNc1ncc(Cl)cn1 [Example A239, ((2S,3R)-2-(((5-Chloropyrimidin-2-yl)amino)methyl)-3-methylpiperidin-1-yl)(2-fluoro-6-(pyrimidin-2-yl)phenyl)methanone]
> 5 | C[C@@H]1CCCN(C(=O)c2cc(F)ccc2-n2nccn2)[C@@H]1CNc1ncc(C(F)(F)F)cn1 [Example A207, (5-Fluoro-2-(2H-1,2,3-triazol-2-yl)phenyl)((2S,3R)-3-methyl-2-(((5-(trifluoromethyl)pyrimidin-2-yl)amino)methyl)piperidin-1-yl)methanone]
1.9 | Cc1ccc(-c2cccc(C)n2)c(C(=O)N2CCC[C@@H](C)[C@H]2CNc2ccc(C(F)(F)F)cn2)c1 [Example A104, ((2S,3R)-3-Methyl-2-(((5-(trifluoromethyl)pyridin-2-yl)amino)methyl)piperidin-1-yl)(5-methyl-2-(6-methylpyridin-2-yl)phenyl)methanone]
> 5 | C[C@@H]1CCCN(C(=O)c2cc(C#N)ccc2-c2ncccn2)[C@@H]1CNc1ncc(C(F)(F)F)cn1 [Example A323, 3-((2S,3R)-3-Methyl-2-(((5-(trifluoromethyl)pyrimidin-2-yl)amino)methyl)piperidine-1-carbonyl)-4-(pyrimidin-2-yl)benzonitrile]
> 5 | C[C@@H]1CCCN(C(=O)c2cc(Cl)ccc2-n2nccn2)[C@@H]1CNc1ccc(C(F)(F)F)nn1 [Example A162, (5-Chloro-2-(2H-1,2,3-triazol-2-yl)phenyl)((2S,3R)-3-methyl-2-(((6-(trifluoromethyl)pyridazin-3-yl)amino)methyl)piperidin-1-yl)methanone]
> 5 | C[C@@H]1CCCN(C(=O)c2cc(F)c(F)cc2-c2ncccn2)[C@@H]1CNc1ccc(C(F)(F)F)cn1 [Example A242, (4,5-Difluoro-2-(pyrimidin-2-yl)phenyl)((2S,3R)-3-methyl-2-(((5-(trifluoromethyl)pyridin-2-yl)amino)methyl)piperidin-1-yl)methanone]
> 5 | COc1cccnc1NC[C@@H]1[C@H](C)CCCN1C(=O)c1cc(C)ccc1-n1nccn1 [Example A98, ((2S,3R)-2-(((3-Methoxypyridin-2-yl)amino)methyl)-3-methylpiperidin-1-yl)(5-methyl-2-(2H-1,2,3-triazol-2-yl)phenyl)methanone]

Same assay, conditions: Table 2; CHO-OX2 cells, EC90 of OXA; read-out: IC50 Bioactivity OX2

IC50 [µM] | SMILES
0.6 | CNC1CCC(CNC(=O)c2cccc3cccnc23)N(C(=O)c2ccccc2-c2ccccc2)C1 (racemic) [Example 49, N-((1-(Biphenylcarbonyl)-5-(methylamino)piperidin-2-yl)methyl)quinoline-8-carboxamide]
> 10 | C[C@@H]1CCCN(C(=O)c2ccnn2-c2ccccc2)[C@@H]1CNc1ccc(C(F)(F)F)cn1 (racemic) [Example 119, rac-cis-(3-Methyl-2-(((5-(trifluoromethyl)pyridin-2-yl)amino)methyl)piperidin-1-yl)(1-phenyl-1H-pyrazol-5-yl)methanone]
> 10 | Cc1nc(C(=O)N2C[C@H]3CCC[C@H]3C2CNc2nc3ccccc3o2)c(-c2ccc(F)cc2)s1 (mixture of isomers) [Example 100, (1-((Benzo[d]oxazol-2-ylamino)methyl)hexahydrocyclopenta[c]pyrrol-2(1H)-yl)(5-(4-fluorophenyl)-2-methylthiazol-4-yl)methanone]
3.3 | Cc1nc(C(=O)N2CCC[C@@H](C)[C@H]2CNc2ncc(C(F)(F)F)cn2)c(-c2ccc(F)cc2)s1 (racemic) [Example 75, rac-cis-(3-Methyl-2-(((5-(trifluoromethyl)pyrimidin-2-yl)amino)methyl)piperidin-1-yl)(5-(4-fluorophenyl)-2-methylthiazol-4-yl)methanone]
> 10 | Cc1nc(C(=O)N2CCC[C@@H](C)[C@H]2CNc2ccc(F)cn2)c(-c2ccc(F)cc2)s1 (racemic) [Example 85, rac-cis-(2-(((5-Fluoropyridin-2-yl)amino)methyl)-3-methylpiperidin-1-yl)(5-(4-fluorophenyl)-2-methylthiazol-4-yl)methanone]
> 10 | Cc1nc(C(=O)N2CCC[C@@H](C)[C@H]2CNc2ccc(C#N)cn2)c(-c2ccc(F)cc2)s1 (racemic) [Example 91, rac-cis-6-(((1-(5-(4-Fluorophenyl)-2-methylthiazole-4-carbonyl)-3-methylpiperidin-2-yl)methyl)amino)nicotinonitrile]
> 1 | Cc1ccc(-c2ccncc2)c(C(=O)N2CCC[C@@H](C)[C@H]2CNc2ccc(C(F)(F)F)cn2)c1 (racemic) [Example 106, rac-cis-(3-Methyl-2-(((5-(trifluoromethyl)pyridin-2-yl)amino)methyl)piperidin-1-yl)(5-methyl-2-(pyridin-4-yl)phenyl)methanone]
1.8 | COc1ccnc(NC[C@@H]2[C@H](C)CCCN2C(=O)c2nc(C)sc2-c2ccc(F)cc2)n1 (racemic) [Example 17, rac-cis-(5-(4-Fluorophenyl)-2-methylthiazol-4-yl)(2-(((4-methoxypyrimidin-2-yl)amino)methyl)-3-methylpiperidin-1-yl)methanone]
